# Measured values reported in PubChem BioAssay AID2806 (Sanford-Burnham Center for Chemical Genomics, 2010).
# The list shows a part of the results, in another mix than the full data. The source made the active and inactive calls.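 Rule for the calls: active = inhibition of at least 40% at 10 µM in the primary screen; inactive = the rest.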
# System: intestinal alkaline phosphatase [Mus musculus]
# Assay: inhibitors of mouse IAP, primary screen, biochemical, luminescence, uHTS (AID 2806);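 note: plate controls were DMSO with enzyme for no effect and no enzyme wells for full effect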
# Settings: purified mouse IAP, CDP-Star luminescence, 30 min; at 10 µM; hits give high values
row,Structure (SMILES),inhibition
1,Cc1cc(SC(NC(=O)c2ccccc2)C(Cl)(Cl)Cl)nc(C(C)C)n1 (stereo not drawn),inactive: 11.4%
2,CCCCOc1ccc(C(=O)NCC2(N3CCCCC3)CCCCC2)cc1OC,inactive: -24.8%
3,CCOC(=O)Nc1ccc([As](=O)(O)O)c(O)c1,inactive: 19.7%
4,O=P(Nc1ccccn1)(c1cccc2ccccc12)c1cccc2ccccc12,inactive: 2.2%
5,Cc1cc(SC(NC=O)C(Cl)(Cl)Cl)ncn1 (stereo not drawn),inactive: -6.7%
6,CCOC(=O)Nc1cccc([As](=O)(O)O)c1,inactive: 10.2%
7,O=C(Nc1ccncc1[N+](=O)[O-])c1ccc([N+](=O)[O-])cc1[N+](=O)[O-],inactive: 5.3%
8,O=C(COc1ccccc1)OC1CN2CCC1CC2 (stereo not drawn),inactive: -0.8%
9,COP1(=S)c2c(C)nn(CCC#N)c2N=C(c2ccc(F)cc2)N1C (stereo not drawn),inactive: 5.2%
10,CCC(C)N(CC(C)C)C(=S)SC(NC(C)=O)C(Cl)(Cl)Cl (stereo not drawn),inactive: 5.1%
11,CCOC(=O)c1ccc(NC(=O)C(C)(CCl)SC)cc1 (stereo not drawn),inactive: -10%
12,O=C(OC1CN2CCC1CC2)c1cccc([N+](=O)[O-])c1 (stereo not drawn),inactive: -2.6%
13,COc1cc(I)ccc1[As](=O)(O)O,inactive: 4%
14,COc1ccc2nc(NP(=O)(c3ccccc3)c3ccccc3)sc2c1,inactive: 7.5%
15,Cc1cc(=O)[nH]c(N[N+](=O)[O-])n1,inactive: -7.6%
16,O=C(OC1CN2CCC1CC2)C12CC3CC(CC(C3)C1)C2 (stereo not drawn),inactive: 4.2%
17,Cc1c2c(nc3ccccc13)SC(C(Cl)Cl)C2 (stereo not drawn),inactive: 4%
18,COc1ccc(N/C(=N/P(=O)(N2CCOCC2)N2CCOCC2)N2CCOCC2)cc1,inactive: 8.9%
19,Cc1ccc2nc3c(c(C)c2c1)CC(C(Cl)Cl)S3 (stereo not drawn),inactive: 5.2%
20,Cc1ccc(OP(=O)(Nc2ccc([N+](=O)[O-])cn2)Oc2ccc(C)cc2)cc1,inactive: -5.4%
21,COc1cc(C(=O)NCC2(N3CCOCC3)CCCCC2)ccc1OCC(C)C,inactive: -5.5%
22,C[As](=O)(O)c1cccc(C(=O)O)c1,inactive: 2.2%
23,O=[As](O)(c1ccc(O)cc1)c1ccccc1O,inactive: -1.9%
24,O=[N+]([O-])c1cc([N+](=O)[O-])c(-c2ccn[nH]2)s1,active: 43.4%
25,CC(C)NC(=O)NP(=O)(Oc1ccccc1)Oc1ccccc1,inactive: -0.4%
26,O=C(OC1CN2CCC1CC2)c1cccc2[nH]cnc12 (stereo not drawn),inactive: -0.1%

row,Structure (SMILES),inhibition
1,CCN(CC)C(=S)SC(NC=O)C(Cl)(Cl)Cl (stereo not drawn),inactive: -6.3%
2,CC(C)c1ccc(OP(=O)(Nc2ccccn2)Oc2ccccc2F)cc1 (stereo not drawn),inactive: 1.5%
3,ClCCSc1nnc(-c2cccnc2)o1,inactive: 0.9%
4,Nc1ccccc1[As](=O)(O)c1ccccc1,inactive: -4.2%
5,O=C(O)COc1ccc([As](=O)(O)O)cc1[N+](=O)[O-],inactive: -5.6%
6,CS(=O)(=O)c1cc([N+](=O)[O-])c2no[n+]([O-])c2c1,inactive: 7%
7,O=P(Nc1nccs1)(Oc1ccccc1)Oc1ccccc1,inactive: -2.4%
8,O=P(Nc1nccs1)(c1ccccc1)c1nc2ccccc2s1 (stereo not drawn),inactive: -5.2%
9,CCOP1(=S)c2c(C)nn(CCC#N)c2N=C(c2ccccc2F)N1C (stereo not drawn),inactive: 0.2%
10,CN(C(=O)Cc1ccc(Cl)c(Cl)c1)[C@H]1CC[C@@]2(CCCO2)C[C@@H]1N1CCCC1,inactive: -2.9%
11,O=[N+]([O-])c1ccc2c(c1)nnn2O,inactive: -4.4%
12,CN(C)C(=O)c1cc([N+](=O)[O-])cc2c1-c1c(cc([N+](=O)[O-])cc1[N+](=O)[O-])C2=O,inactive: -5.1%
13,CN(C(=O)Cc1ccccc1)[C@@H]1CC[C@]2(CCCO2)C[C@H]1N1CCCC1,inactive: 4%
14,CCOP1(=S)c2c(C)nn(CCC#N)c2N=C(c2ccc(F)cc2)N1C (stereo not drawn),inactive: 11.4%
15,N#CCCN(C(=O)COC(=O)C(O)(c1ccccc1)c1ccccc1)c1ccc(F)cc1,inactive: 7.1%
16,NC(=O)Nc1ccc([As](=O)(O)O)cc1,inactive: -13.8%
17,Cc1cccc(OCC(=O)OC2CN3CCC2CC3)c1 (stereo not drawn),inactive: 1.7%
18,O=[As](O)(c1cccc(O)c1)c1cccc(O)c1,inactive: 5.8%
19,CS(=O)(=O)c1ccc(Cl)c(NC(=O)COC(=O)C(O)(c2ccccc2)c2ccccc2)c1,inactive: 1.4%
20,O=[As](O)(O)c1cccnc1,inactive: 3.3%
21,COc1cc(C(=O)NCC2(N3CCOCC3)CCCCC2)cc(Cl)c1OC(C)C,inactive: -7.5%
22,O=C(OC1CN2CCC1CC2)c1ccc(Cl)cc1 (stereo not drawn),inactive: -4.9%
23,CCOP(=O)(Nc1cccc2ccccc12)OCC,inactive: 3.8%
24,COc1cc(C2NCCC3(OCCO3)C2(C)C)cc(OC)c1OC (stereo not drawn),inactive: 1.6%
25,CCCOP(=S)(Nc1nc(N)cc(=O)[nH]1)OCCC,inactive: -0.3%
26,Cc1ccc(NCCc2c([N+](=O)[O-])cc([N+](=O)[O-])cc2[N+](=O)[O-])cc1,inactive: 15.3%

row,Structure (SMILES),inhibition
1,CC(C)(C)C(=O)NC(Sc1ncccn1)C(Cl)(Cl)Cl (stereo not drawn),inactive: -0.4%
2,Clc1n[nH]nc1-c1nn[nH][15n]1,inactive: 0.5%
3,CCOP(=O)(Nc1ccc(C)cn1)OCC,inactive: -13.2%
4,CN(CCCl)Cc1cc(Cl)c(NC2=NCCN2)c(Cl)c1,inactive: 2.3%
5,CCOP(=O)(NC(=NC(C)c1ccccc1)NC(C)c1ccccc1)OCC (stereo not drawn),inactive: -3.7%
6,O=P1(Nc2ccccn2)COc2ccccc2OC1,inactive: -4.1%
7,CCC1=CC2Cc3nc4ccc(Cl)cc4c(N)c3C(C1)C2 (stereo not drawn),inactive: -5.4%
8,CC1(CBr)Cn2c(nc3ccccc3c2=O)S1 (stereo not drawn),inactive: -6.4%
9,O=[As](O)(c1ccccc1Br)c1ccccc1Br,inactive: -3.3%
10,CC(C)/C=N\N=C(\N)N[N+](=O)[O-],inactive: -9.5%
11,CN(C(=O)Cc1ccc(Cl)c(Cl)c1)[C@@H]1CCCC[C@H]1N1CCCC1,inactive: -1.5%
12,COc1ccccc1CNC(=O)COC(=O)C(O)(c1ccccc1)c1ccccc1,inactive: 3.5%
13,O=C(/C=C/c1ccccc1)OC1CN2CCC1CC2 (stereo not drawn),inactive: -7.2%
14,CN(C)C1(CNC(=O)c2ccc(S(C)(=O)=O)cc2)CCCCC1,inactive: -5.3%
15,CC1CCC(C(C)C)C(OP(=O)(Nc2ccccn2)c2ccccc2)C1 (stereo not drawn),inactive: 10.2%
16,Cc1ccc(C(=O)OC2CN3CCC2CC3)cc1 (stereo not drawn),inactive: 2.5%
17,Cc1nn(-c2ccccc2)c2c1P(=O)(N1CCOCC1)N(C)C(c1ccccc1)=N2 (stereo not drawn),inactive: 3.5%
18,O=[As](O)(c1cccs1)c1cccs1,inactive: 5.3%
19,Cc1ccc(OCC(=O)OC2CN3CCC2CC3)cc1 (stereo not drawn),inactive: 7.1%
20,O=P1(Nc2ccc(Br)cn2)COc2ccccc2OC1,inactive: 4.2%
21,NS(=O)(=O)c1cccc(NC(=O)COC(=O)C(O)(c2ccccc2)c2ccccc2)c1,inactive: 19.9%
22,Nc1cccc([As](=O)(O)c2ccccc2)c1,inactive: -3.4%
23,O=P1(Nc2ncccn2)COc2ccccc2OC1,inactive: 3.7%
24,C[C@H]1OP(=O)(Oc2ccccc2)[C@H](O)[C@H](O)[C@H]1N=[N+]=[N-] (stereo partly drawn),inactive: -11.6%
25,O=P(Nc1nc2ccccc2s1)(c1ccccc1)c1ccccc1,inactive: 1.8%
26,O=P(Nc1ccccn1)(c1ccc(Br)cc1)c1ccc(Br)cc1,inactive: -5.7%

row,Structure (SMILES),inhibition
1,CN(C)C1(CNC(=O)c2ccc(Cl)c(S(N)(=O)=O)c2)CCCCC1,inactive: -5.5%
2,C(Cc1nn[nH]n1)Cc1nn[nH]n1,inactive: 11.2%
3,Nc1ccc([As](=O)(O)c2ccc([N+](=O)[O-])cc2)cc1,inactive: 8.8%
4,O=C(OC1CN2CCC1CC2)c1cccc(Cl)c1 (stereo not drawn),inactive: -4.4%
5,O=[N+]([O-])c1ncn(CCn2cnc([N+](=O)[O-])n2)n1,inactive: 0.3%
6,O=[As](O)(c1ccccc1)c1ccc(O)cc1,inactive: -8.7%
7,c1nnnn1CCn1cnnn1,inactive: -8.2%
8,CC(C)C(=O)NC(Sc1ccccc1)C(Cl)(Cl)Cl (stereo not drawn),inactive: -6.6%
9,O=P(Nc1nccs1)(c1ccccc1)c1ccccc1,inactive: 4.8%
10,CC(C)(C)C(=O)NC(Sc1ccccc1)C(Cl)(Cl)Cl (stereo not drawn),inactive: 3.9%
11,CCOc1ccc(C2=NCC(CBr)S2)cc1 (stereo not drawn),inactive: 10.9%
12,O=P1(Nc2nc3ccc(Cl)cc3s2)COc2ccccc2O1 (stereo not drawn),inactive: -1.4%
13,CC(=O)Nc1ccc(Oc2c([N+](=O)[O-])cc([N+](=O)[O-])cc2[N+](=O)[O-])cc1,inactive: -10.4%
14,CC(=O)Nc1ccc([As](=O)(O)O)c(O)c1,inactive: 8.8%
15,CC(=O)c1ccc(N2CC2c2ccncc2)cc1 (stereo not drawn),inactive: 4.2%
16,C[C@H]1OP(=O)(Oc2ccccc2)C[C@@H]2O[C@@H]21 (stereo partly drawn),inactive: -3.6%
17,C[C@@H]1C=CCP(=O)(Oc2ccccc2)O1 (stereo partly drawn),inactive: 5.7%
18,Cc1ccccc1CN(C)C(=O)COC(=O)C(O)(c1ccccc1)c1ccccc1,inactive: 6.1%
19,CCNC(=S)/N=C(\N)N[N+](=O)[O-],inactive: 10.3%
20,O=C(NC1CCS(=O)(=O)C1)NP(=S)(Oc1ccccc1)Oc1ccccc1 (stereo not drawn),inactive: -3.4%
21,CCOC(=O)NC(Sc1ccccc1)C(Cl)(Cl)Cl (stereo not drawn),inactive: 7.9%
22,Cc1ccc(NP(=O)(Oc2cccc(C)c2)Oc2cccc(C)c2)nc1,inactive: -13.4%
23,c1ccc(-c2nn[nH]n2)c(-c2nn[nH]n2)c1,inactive: 5.3%
24,CN(C)C(=O)Oc1noc2ccccc12,inactive: 1.8%
25,CC(NC(=O)COC(=O)C(O)(c1ccccc1)c1ccccc1)c1ccccc1 (stereo not drawn),inactive: -8%
